Only a part is listed here, and it is no random draw. Activity calls are given as the source filed them.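 Rule for the calls: active = compounds causing at least 50% loss of cell viability in the single-dose screen, relative to plate controls; inactive = the rest.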
assay: viability loss with TRAIL in NB7+C8 cells, primary screen, TRAIL sensitizer project, cell-based, ATPlite luminescence (AID 624354); conditions: at 10 µM, hits give high values

Question: Which inhibition (viability loss, TRAIL sensitization) does the source give for `CC(C)c1ccc(NC2CCN(C(=O)OC(C)(C)C)CC2)cc1` here?
Answer: inactive: 1.05%

Question: For `CCCCn1nnnc1C(c1ccccc1OC(F)(F)F)N1CCC(n2c(=O)[nH]c3ccccc32)CC1` (stereo unspecified), which inhibition (viability loss, TRAIL sensitization) is on record?
Answer: inactive: 19.5%

Question: Which inhibition (viability loss, TRAIL sensitization) does the source give for `COc1ccc(CN(CCCl)CCCl)cc1Cl` here?
Answer: inactive: 0.148%

Question: With `CN(C)c1cccc(C(=O)NCC2(N3CCCCC3)CCCCC2)c1` as the compound, how does the inhibition (viability loss, TRAIL sensitization) read?
Answer: inactive: 3.47%

Question: For `COc1cc(OC)c(C(=O)NCC2(N(C)C)CCCCC2)cc1OC`, which inhibition (viability loss, TRAIL sensitization) is on record?
Answer: inactive: -5.41%

Question: For `CCC(c1nnnn1C(C)(C)C)N1CCC(n2c(=O)[nH]c3ccccc32)CC1` (stereo unspecified), which inhibition (viability loss, TRAIL sensitization) is on record?
Answer: inactive: 12.9%

Question: With `O=C(NCC1(N2CCOCC2)CCCCC1)c1cc(F)c(F)cc1Cl` as the compound, how does the inhibition (viability loss, TRAIL sensitization) read?
Answer: inactive: -7.63%

Question: With `CCCCn1nnnc1C(c1ccnc2ccccc12)N1CCC(n2c(=O)[nH]c3ccccc32)CC1` (stereo unspecified) as the compound, how does the inhibition (viability loss, TRAIL sensitization) read?
Answer: inactive: -0.685%

Question: Which inhibition (viability loss, TRAIL sensitization) does the source give for `CN1CCC(Nc2cccc(F)c2)CC1` here?
Answer: inactive: 1.43%

Question: With `O=C(NCC1(N2CCCCC2)CCCCC1)c1cncc(Br)c1` as the compound, how does the inhibition (viability loss, TRAIL sensitization) read?
Answer: inactive: 2.32%

Question: With `COc1ccc(C(c2nnnn2C2CCCC2)N2CCC(n3c(=O)[nH]c4ccccc43)CC2)cc1` (stereo unspecified) as the compound, how does the inhibition (viability loss, TRAIL sensitization) read?
Answer: inactive: -16.4%

Question: For `Cc1ccc(C(=O)NCC2(N(C)C)CCCCC2)o1`, which inhibition (viability loss, TRAIL sensitization) is on record?
Answer: inactive: 7.25%

Question: Which inhibition (viability loss, TRAIL sensitization) does the source give for `CCCOc1ccc(C(=O)NCC2(N(C)C)CCCCC2)cc1OC` here?
Answer: inactive: -12.9%

Question: With `CC(C)(C)n1nnnc1C(c1ccccc1OC(F)(F)F)N1CCC(n2c(=O)[nH]c3ccccc32)CC1` (stereo unspecified) as the compound, how does the inhibition (viability loss, TRAIL sensitization) read?
Answer: inactive: 1.56%

Question: Which inhibition (viability loss, TRAIL sensitization) does the source give for `O=C(NCC1(N2CCCCC2)CCCCC1)c1ccc(OC(F)F)cc1` here?
Answer: inactive: 5.47%

Question: With `CCN1CCC(Nc2ccc(Cl)cc2)CC1` as the compound, how does the inhibition (viability loss, TRAIL sensitization) read?
Answer: inactive: 9.74%

Question: With `O=c1[nH]c2ccccc2n1C1CCN(C(c2ccccc2OC(F)(F)F)c2nnnn2C2CCCC2)CC1` (stereo unspecified) as the compound, how does the inhibition (viability loss, TRAIL sensitization) read?
Answer: inactive: 11.7%

Question: Which inhibition (viability loss, TRAIL sensitization) does the source give for `N#CC1(Nc2ccccc2)CCN(CCc2ccccc2)CC1` here?
Answer: inactive: 5.1%

Question: For `CSc1ccc(C(=O)NCC2(N3CCOCC3)CCCCC2)cc1`, which inhibition (viability loss, TRAIL sensitization) is on record?
Answer: inactive: -4.97%

Question: Which inhibition (viability loss, TRAIL sensitization) does the source give for `O=C(NCC1(N2CCCCC2)CCCCC1)c1cccc([N+](=O)[O-])c1` here?
Answer: inactive: -4.3%

Question: For `O=C(NCC1(N2CCCCC2)CCCCC1)c1cccc(C(F)(F)F)c1`, which inhibition (viability loss, TRAIL sensitization) is on record?
Answer: inactive: 19.5%

Question: For `COc1cc(C(=O)NCC2(N3CCCCC3)CCCCC2)ccc1OC(F)F`, which inhibition (viability loss, TRAIL sensitization) is on record?
Answer: inactive: 7.1%

Question: For `O=C(NCC1(N2CCOCC2)CCCCC1)c1cc(=O)[nH]c2ccccc12`, which inhibition (viability loss, TRAIL sensitization) is on record?
Answer: inactive: -3.31%

Question: Which inhibition (viability loss, TRAIL sensitization) does the source give for `CN1CCN(CCOC(=O)C(O)(c2ccccc2)c2ccccc2)CC1` here?
Answer: inactive: 4.12%

Question: With `COc1ccc(NC2CCN(C(=O)OC(C)(C)C)CC2)cc1` as the compound, how does the inhibition (viability loss, TRAIL sensitization) read?
Answer: inactive: 5.22%

Question: For `CC(C)c1ccc(C(=O)NCC2(N3CCOCC3)CCCCC2)cc1`, which inhibition (viability loss, TRAIL sensitization) is on record?
Answer: inactive: 0.5%

Question: Which inhibition (viability loss, TRAIL sensitization) does the source give for `CCCCn1nnnc1C(c1cccc2ccccc12)N1CCC(n2c(=O)[nH]c3ccccc32)CC1` (stereo unspecified) here?
Answer: inactive: -9.16%

Question: For `CC(C)(C)n1nnnc1C(c1ccccc1)N1CCC(n2c(=O)[nH]c3ccccc32)CC1` (stereo unspecified), which inhibition (viability loss, TRAIL sensitization) is on record?
Answer: inactive: -13.1%

Question: With `O=C1CCN(Cc2ccccc2)CC1` as the compound, how does the inhibition (viability loss, TRAIL sensitization) read?
Answer: inactive: -9.3%

Question: Which inhibition (viability loss, TRAIL sensitization) does the source give for `CCOc1ccc(C)cc1CN(CCCl)CCCl` here?
Answer: inactive: 3.44%

Question: With `O=P1(N(CCCl)CCCl)SCCCS1` as the compound, how does the inhibition (viability loss, TRAIL sensitization) read?
Answer: inactive: -3.63%

Question: For `CCCCn1nnnc1C(c1cc2ccccc2o1)N1CCC(n2c(=O)[nH]c3ccccc32)CC1` (stereo unspecified), which inhibition (viability loss, TRAIL sensitization) is on record?
Answer: active: 53.4%

Question: For `CCCCOc1ccc(C(=O)NCC2(N3CCOCC3)CCCCC2)cc1`, which inhibition (viability loss, TRAIL sensitization) is on record?
Answer: inactive: 13.8%

Question: Which inhibition (viability loss, TRAIL sensitization) does the source give for `O=C(NCC1(N2CCCCC2)CCCCC1)c1ccc(F)cc1` here?
Answer: inactive: 15.9%

Question: With `COc1ccc(NC2CCN(CCc3ccccc3)CC2)c(OC)c1` as the compound, how does the inhibition (viability loss, TRAIL sensitization) read?
Answer: inactive: 27.1%

Question: With `CCOC(=O)N1CCC(Nc2ccc(F)cc2)CC1` as the compound, how does the inhibition (viability loss, TRAIL sensitization) read?
Answer: inactive: 4.88%

Question: Which inhibition (viability loss, TRAIL sensitization) does the source give for `O=c1[nH]c2ccccc2n1C1CCN(C(c2ccccc2)c2nnnn2C2CCCCC2)CC1` (stereo unspecified) here?
Answer: inactive: 14.7%

Question: For `CCOC(=O)N1CCC(Nc2cccc(C)c2)CC1`, which inhibition (viability loss, TRAIL sensitization) is on record?
Answer: inactive: -3.13%

Question: With `COc1cc(C(=O)NCC2(N(C)C)CCCCC2)ccc1OC(F)F` as the compound, how does the inhibition (viability loss, TRAIL sensitization) read?
Answer: inactive: -2.16%

Question: With `O=c1[nH]c2ccccc2n1C1CCN(C(c2cccc3ccccc23)c2nnnn2C2CCCC2)CC1` (stereo unspecified) as the compound, how does the inhibition (viability loss, TRAIL sensitization) read?
Answer: inactive: 29.3%

Question: Which inhibition (viability loss, TRAIL sensitization) does the source give for `COc1ccc(C(=O)NCC2(N3CCCCC3)CCCCC2)cc1` here?
Answer: inactive: 14.2%

Question: For `COc1ccc(C(=O)NCC2(N3CCCCC3)CCCCC2)c(OC)c1OC`, which inhibition (viability loss, TRAIL sensitization) is on record?
Answer: inactive: 3.5%

Question: For `CC(C)(C)OC(=O)N1CCC(N(C(=O)c2ccccc2)c2ccc(F)cc2)CC1`, which inhibition (viability loss, TRAIL sensitization) is on record?
Answer: inactive: -7.8%

Question: With `CCC(c1nnnn1C1CCCC1)N1CCC(n2c(=O)[nH]c3ccccc32)CC1` (stereo unspecified) as the compound, how does the inhibition (viability loss, TRAIL sensitization) read?
Answer: inactive: -10.1%

Question: Which inhibition (viability loss, TRAIL sensitization) does the source give for `O=C(NCC1(N2CCCCC2)CCCCC1)c1ccc(=O)[nH]c1` here?
Answer: inactive: 1.2%

Question: Which inhibition (viability loss, TRAIL sensitization) does the source give for `CCCCn1nnnc1C(CC)N1CCC(n2c(=O)[nH]c3ccccc32)CC1` (stereo unspecified) here?
Answer: inactive: -16.6%

Question: Which inhibition (viability loss, TRAIL sensitization) does the source give for `O=C(NCC1(N2CCCCC2)CCCCC1)c1cccs1` here?
Answer: inactive: 10.6%

Question: For `CCCCn1nnnc1C(c1cccs1)N1CCC(n2c(=O)[nH]c3ccccc32)CC1` (stereo unspecified), which inhibition (viability loss, TRAIL sensitization) is on record?
Answer: inactive: 8.32%

Question: For `CSc1ccccc1C(=O)NCC1(N2CCCCC2)CCCCC1`, which inhibition (viability loss, TRAIL sensitization) is on record?
Answer: inactive: -2.83%

Question: Which inhibition (viability loss, TRAIL sensitization) does the source give for `Cc1cccc(NC2(C#N)CCN(Cc3ccccc3)CC2)c1` here?
Answer: inactive: -9.28%

Question: With `O=C(NCC1(N2CCCCC2)CCCCC1)c1ccc(Cl)nc1` as the compound, how does the inhibition (viability loss, TRAIL sensitization) read?
Answer: inactive: -9.46%

Question: For `O=c1[nH]c2ccccc2n1C1CCN(C(c2ccccc2OC(F)(F)F)c2nnnn2C2CCCCC2)CC1` (stereo unspecified), which inhibition (viability loss, TRAIL sensitization) is on record?
Answer: inactive: 5.27%

Question: For `Cc1cc(C)cc(N(C(=O)c2ccccc2)C2CCN(C(=O)OC(C)(C)C)CC2)c1`, which inhibition (viability loss, TRAIL sensitization) is on record?
Answer: inactive: -4.25%

Question: With `O=C(NCC1(N2CCOCC2)CCCCC1)c1cc2ccccc2o1` as the compound, how does the inhibition (viability loss, TRAIL sensitization) read?
Answer: inactive: 7.1%

Question: Which inhibition (viability loss, TRAIL sensitization) does the source give for `N#CC1(Nc2ccccc2)CCN(Cc2ccccc2)CC1` here?
Answer: inactive: 13.9%

Question: Which inhibition (viability loss, TRAIL sensitization) does the source give for `O=C(NCC1(N2CCCCC2)CCCCC1)c1ccc(Cl)s1` here?
Answer: inactive: 1.34%

Question: With `O=C(OC1CN2CCC1CC2)C1c2ccccc2Oc2ccccc21` (stereo unspecified) as the compound, how does the inhibition (viability loss, TRAIL sensitization) read?
Answer: inactive: -12.3%

Question: With `O=c1[nH]c2ccccc2n1C1CCN(C(c2cc3ccccc3o2)c2nnnn2C2CCCCC2)CC1` (stereo unspecified) as the compound, how does the inhibition (viability loss, TRAIL sensitization) read?
Answer: inactive: 37.7%

Question: Which inhibition (viability loss, TRAIL sensitization) does the source give for `COc1ccc(Cl)cc1C(=O)NCC1(N2CCOCC2)CCCCC1` here?
Answer: inactive: -9.84%

Question: For `CCOC(=O)N1CCC(Nc2ccc(OC)cc2)CC1`, which inhibition (viability loss, TRAIL sensitization) is on record?
Answer: inactive: -1.71%

Question: For `CCCCn1nnnc1C(c1ccc(OC)cc1)N1CCC(n2c(=O)[nH]c3ccccc32)CC1` (stereo unspecified), which inhibition (viability loss, TRAIL sensitization) is on record?
Answer: inactive: 6.54%
